Measured values: patent US9750809B2, “Cancer treatment” (MOREX DEVELOPMENT PARTNERS LLP, priority 2012, dated 2017)

Assay: Boron biodistribution in tissues of SCCVII tumour-bearing mice given MTL005 (DCP-AES)
Settings: irradiated mice (32 Gy), 150 mg/kg i.p., FIG. 1
Procedure: Direct current plasma-atomic emission spectroscopy [DCP-AES] (ARL/Fisons Model SS-7) was used (detection limit: 0.1 μg B/mL) to determine boron concentrations in tissues of individual mice. Samples (50-130 mg) were digested at 60° C. with sulfuric acid:nitric acid (1:1). Triton X-100 and water were added to give final concentrations of ˜50 mg tissue/mL, 15% total acid v/v and 5% Triton X-100 v/v. […] It is known that the ether linkages between the porphyrin and carborane cages remain intact in vivo.

## copper meso-5,15-bis[3-[(1,2-dicarba-closo-dodecaboranyl)methoxy]phenyl]-meso-10,20-dinitroporphyrin [MTL005]
40-62 days post irradiation
  Boron concentrations from livers at time of euthanasia: 135 to 207 µg
Constant over the time period (40-62 days post irradiation)
  Tumour boron concentration at time of euthanasia: 9 to 22 µg/g
